Measured water solubility values of organic chemicals

From the experimental data distributed with OPERA 2.9.

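OPERA's authors assembled the values from existing databases and did not measure them anew. The files give a single number for a compound and property, which may rest on several reports. Method and conditions are not stated for these values. A value may pool stereoisomers or salt forms, and the file does not say which form was measured. Some entries may be limits or estimates that an upstream database listed as plain numbers.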

Solubility in water is on a log10 molar scale (set defined at 25 °C).
Cells with "–" have no entry in this list.

| SMILES | name | water solubility (log10 mol/L) |
|---|---|---|
| CCN(CC)c1ccc(N=Nc2c(Cl)cc([N+](=O)[O-])cc2[N+](=O)[O-])c(NC(C)=O)c1 | – | -7.116 |
| CCCCc1ccc(-c2ccc(-c3ccc(CC)cc3)cc2F)cc1 | – | -7.92 |
| C/C=C/c1ccc(OC(C)=O)c(OC)c1 | Isoeugenyl acetate, (E)- | -3.665 |
| CCOC(=O)Nc1ccccc1 | Carbamic acid, phenyl-, ethyl ester | -2.37 |
| CCN[C@@H]1C[C@H](N)[C@@H](O[C@H]2OC(CN)=CC[C@H]2N)[C@H](O)[C@H]1O[C@H]1OC[C@](C)(O)[C@H](NC)[C@H]1O | Netilmicin | -1.751 |
| CCCCCCCCCCCCCCCCCCP(=O)(O)OC | Methyl hydrogen octadecylphosphonate | -6.2 |
| O=C(O)Cc1ccccc1Oc1ccc(Cl)cc1Cl | Fenclofenac | -3.851 |
| CCCCC(NC(N)=O)C(=O)O (racemic) | – | -2.162 |
| NC(=O)N[C@@H](CC(=O)O)C(=O)O | N-Carbamoylaspartic acid | -1.678 |
| Clc1ccc(Oc2c(Cl)c(Cl)c(Cl)c(Cl)c2Cl)c(Cl)c1Cl | 2,2',3,3',4,4',5,6-Octachloro-diPh ether | -10.55 |
| NC(=O)CN(CC(=O)O)CC(=O)O | Glycine, N-(2-amino-2-oxoethyl)-N-(carboxymethyl)- | -1.812 |
| O[C@@H]1[C@@H]2O[C@@H]3[C@@H](O)[C@H](O)[C@H](O[C@@H]4[C@@H](O)[C@H](O)[C@H](O[C@@H]5[C@@H](O)[C@H](O)[C@H](O[C@@H]6[C@@H](O)[C@H](O)[C@H](O[C@@H]7[C@@H](O)[C@H](O)[C@H](O[C@@H]8[C@@H](O)[C@H](O)[C@H](O[C@@H]9[C@@H](O)[C@H](O)[C@H](O[C@H]([C@H]1O)[C@H](CBr)O2)O[C@H]9CBr)O[C@H]8CBr)O[C@H]7CBr)O[C@H]6CBr)O[C@H]5CBr)O[C@H]4CBr)O[C@H]3CBr | – | -6.419 |
| CN(CCO)c1ccc(/N=N/c2c(Cl)cc([N+](=O)[O-])cc2Cl)cc1 | – | -6.37 |
| C=C[C@H]1CC[C@H]([C@H]2CC[C@H](CCCCC)CC2)CC1 | trans-4-pentyl-trans-4'-vinylbicyclohexyl | -6.942 |
| CCCCCCCCCCCCCCCCOP(=O)([O-])O.[K+] | Potassium hexadecyl hydrogen phosphate | -3.26 |
| Cc1c(C#N)sc(N)c1C#N | 5-Amino-3-methyl-2,4-thiophenedicarbonitrile | -3.175 |
| Cc1cccc(C)c1NC(=O)CN1CCN(CCCC(c2ccc(F)cc2)c2ccc(F)cc2)CC1 | Lidoflazine | -3.68 |
| Clc1ccc(Oc2cc(Cl)cc(Cl)c2Cl)c(Cl)c1 | 2,2',3,4',5-Pentachlorodiphenylether | -7.64 |
| COc1nc(OC)nc(C(=O)c2cccc(F)c2N(C)S(=O)(=O)C(F)F)n1 | – | -4.065 |
| COC(=O)/C=C(\C)C(=O)O | (E)-4-Methoxy-2-methyl-4-oxobut-2-enoic acid | -0.076 |
| CC1=CC(=O)N(Cc2cccc(CN3C(=O)C=C(C)C3=O)c2)C1=O | – | -3.9 |
| CC(C)NC(=N)NC(=N)Nc1ccc(Cl)cc1 | Chlorguanide | -2.948 |
| CCCCC(C(=O)O)C(=O)O | – | 0.438 |
| CCCCOC(=O)CC(O)(CC(=O)OCCCC)C(=O)OCCCC | Tributyl citrate | -3.545 |
| CCCCC(F)(F)[C@@]1(O)CC[C@H]2[C@@H](CC(=O)[C@@H]2CCCCCCC(=O)O)O1 | Lubiprostone | -4.183 |
| Nc1ccc(S(N)(=O)=O)cn1 | 6-aminopyridine-3-sulfonamide | -1.217 |
| CCCCCCCCCCCCCCCCCCNC(=O)c1cccnc1 | N-Octadecyl-3-pyridinecarboxamide | -3.187 |
| OCCC(CCO)c1ccc(N=Nc2ccccc2)cc1 | C.I. Solvent Yellow 58 | -3.957 |
| CCCCCCCC/C=C\CCCCCCCC(=O)OCC(C)(C)COC(=O)CCCCCCC/C=C\CCCCCCCC | 2,2-Dimethyl-1,3-propanediyl dioleate | -7.102 |
| NC(=O)c1ccc(N=C(O)c2ccc(N)cc2)cc1 | 4-Amino-N-(4-carbamoylphenyl)benzene-1-carboximidic acid | -4.916 |
| Clc1ccc(Cl)c(Oc2ccc(Cl)c(Cl)c2)c1 | – | -7.07 |
| Cc1ccc(C(N)=O)cc1 | Benzamide, 4-methyl- | -1.19 |
| Cc1cc(O)c(C(C)C)cc1C1(c2cc(C(C)C)c(O)cc2C)OS(=O)(=O)c2ccccc21 | – | -3.631 |
| NC(CO)(CO)CO | Tromethamine | 0.658 |
| Nc1ccc(N)c(S(=O)(=O)O)c1 | 2,5-Diaminobenzenesulfonic acid | -1.673 |
| CC(=O)Nc1nc(=S)ss1 | N-(3-Thioxo-3H-1,2,4-dithiazol-5-yl)acetamide | -2.381 |
| CCC/C=C/C=O | (2E)-2-Hexenal | -1.271 |
| CCCCCc1ccccc1 | Pentylbenzene | -4.64 |
| O=C(O)CCCCC(C(=O)O)(c1ccccc1)c1ccccc1 | 2,2-Diphenylheptanedioic acid | -3.43 |
| N#Cc1ccc2c(c1)N(CCCN1CCC(O)CC1)c1ccccc1S2 | Periciazine | -3.98 |
| O=c1nc(O)c(F)cn1C(O)=Nc1ccccc1 | 1(2H)-PYRIMIDINECARBOXAMIDE, 5-FLUORO-3,4-DICHLO | -1.618 |
| CC1COC(C)(C)O1 (centres undefined) | 2,2,4-Trimethyl-1,3-dioxolane | -0.02 |
| COc1cc([N+](=O)[O-])ccc1N=NC(C(C)=O)C(=O)Nc1cc(Cl)ccc1OC (centres undefined) | – | -7.466 |
| c1ccc(COCc2ccccc2)cc1 | Dibenzyl ether | -3.673 |
| COc1ccc(C=C2N=C(c3ccc(C4=NC(=Cc5ccc(OC)cc5)C(=O)O4)cc3)OC2=O)cc1 | – | -6.984 |
| Nc1c(/N=N/c2ccc(-c3ccc(/N=N/c4cc(S(=O)(=O)[O-])c5ccccc5c4N)cc3)cc2)cc(S(=O)(=O)[O-])c2ccccc12.[Na+].[Na+] | C.I. Direct Red 28 | -0.779 |
| C/C(Cl)=C/C(=O)O | (2Z)-3-Chloro-2-butenoic acid | -0.704 |
| CCCCC(CC)(C(=O)O)C(=O)O | Butyl(ethyl)propanedioic acid | -0.798 |
| CCc1nc(N)c(C)c(CC)n1 | 2,6-diethyl-5-methylpyrimidin-4-amine | -2.355 |

Extract of 5 entries:

| SMILES | name | water solubility (log10 mol/L) |
|---|---|---|
| CCCCC(C(=O)O)C(=O)O | – | 0.438 |
| c1ccc(COCc2ccccc2)cc1 | Dibenzyl ether | -3.673 |
| Clc1ccc(Oc2c(Cl)c(Cl)c(Cl)c(Cl)c2Cl)c(Cl)c1Cl | 2,2',3,3',4,4',5,6-Octachloro-diPh ether | -10.55 |
| O=C(O)CCCCC(C(=O)O)(c1ccccc1)c1ccccc1 | 2,2-Diphenylheptanedioic acid | -3.43 |
| Clc1ccc(Cl)c(Oc2ccc(Cl)c(Cl)c2)c1 | – | -7.07 |